Experimental data taken from paper PMC4902270 (The Biochemical journal, 2015).

Protein sequences, listed by entry. Tags and fused reporters are not part of them.
UniProt B0LPN4, whole entry: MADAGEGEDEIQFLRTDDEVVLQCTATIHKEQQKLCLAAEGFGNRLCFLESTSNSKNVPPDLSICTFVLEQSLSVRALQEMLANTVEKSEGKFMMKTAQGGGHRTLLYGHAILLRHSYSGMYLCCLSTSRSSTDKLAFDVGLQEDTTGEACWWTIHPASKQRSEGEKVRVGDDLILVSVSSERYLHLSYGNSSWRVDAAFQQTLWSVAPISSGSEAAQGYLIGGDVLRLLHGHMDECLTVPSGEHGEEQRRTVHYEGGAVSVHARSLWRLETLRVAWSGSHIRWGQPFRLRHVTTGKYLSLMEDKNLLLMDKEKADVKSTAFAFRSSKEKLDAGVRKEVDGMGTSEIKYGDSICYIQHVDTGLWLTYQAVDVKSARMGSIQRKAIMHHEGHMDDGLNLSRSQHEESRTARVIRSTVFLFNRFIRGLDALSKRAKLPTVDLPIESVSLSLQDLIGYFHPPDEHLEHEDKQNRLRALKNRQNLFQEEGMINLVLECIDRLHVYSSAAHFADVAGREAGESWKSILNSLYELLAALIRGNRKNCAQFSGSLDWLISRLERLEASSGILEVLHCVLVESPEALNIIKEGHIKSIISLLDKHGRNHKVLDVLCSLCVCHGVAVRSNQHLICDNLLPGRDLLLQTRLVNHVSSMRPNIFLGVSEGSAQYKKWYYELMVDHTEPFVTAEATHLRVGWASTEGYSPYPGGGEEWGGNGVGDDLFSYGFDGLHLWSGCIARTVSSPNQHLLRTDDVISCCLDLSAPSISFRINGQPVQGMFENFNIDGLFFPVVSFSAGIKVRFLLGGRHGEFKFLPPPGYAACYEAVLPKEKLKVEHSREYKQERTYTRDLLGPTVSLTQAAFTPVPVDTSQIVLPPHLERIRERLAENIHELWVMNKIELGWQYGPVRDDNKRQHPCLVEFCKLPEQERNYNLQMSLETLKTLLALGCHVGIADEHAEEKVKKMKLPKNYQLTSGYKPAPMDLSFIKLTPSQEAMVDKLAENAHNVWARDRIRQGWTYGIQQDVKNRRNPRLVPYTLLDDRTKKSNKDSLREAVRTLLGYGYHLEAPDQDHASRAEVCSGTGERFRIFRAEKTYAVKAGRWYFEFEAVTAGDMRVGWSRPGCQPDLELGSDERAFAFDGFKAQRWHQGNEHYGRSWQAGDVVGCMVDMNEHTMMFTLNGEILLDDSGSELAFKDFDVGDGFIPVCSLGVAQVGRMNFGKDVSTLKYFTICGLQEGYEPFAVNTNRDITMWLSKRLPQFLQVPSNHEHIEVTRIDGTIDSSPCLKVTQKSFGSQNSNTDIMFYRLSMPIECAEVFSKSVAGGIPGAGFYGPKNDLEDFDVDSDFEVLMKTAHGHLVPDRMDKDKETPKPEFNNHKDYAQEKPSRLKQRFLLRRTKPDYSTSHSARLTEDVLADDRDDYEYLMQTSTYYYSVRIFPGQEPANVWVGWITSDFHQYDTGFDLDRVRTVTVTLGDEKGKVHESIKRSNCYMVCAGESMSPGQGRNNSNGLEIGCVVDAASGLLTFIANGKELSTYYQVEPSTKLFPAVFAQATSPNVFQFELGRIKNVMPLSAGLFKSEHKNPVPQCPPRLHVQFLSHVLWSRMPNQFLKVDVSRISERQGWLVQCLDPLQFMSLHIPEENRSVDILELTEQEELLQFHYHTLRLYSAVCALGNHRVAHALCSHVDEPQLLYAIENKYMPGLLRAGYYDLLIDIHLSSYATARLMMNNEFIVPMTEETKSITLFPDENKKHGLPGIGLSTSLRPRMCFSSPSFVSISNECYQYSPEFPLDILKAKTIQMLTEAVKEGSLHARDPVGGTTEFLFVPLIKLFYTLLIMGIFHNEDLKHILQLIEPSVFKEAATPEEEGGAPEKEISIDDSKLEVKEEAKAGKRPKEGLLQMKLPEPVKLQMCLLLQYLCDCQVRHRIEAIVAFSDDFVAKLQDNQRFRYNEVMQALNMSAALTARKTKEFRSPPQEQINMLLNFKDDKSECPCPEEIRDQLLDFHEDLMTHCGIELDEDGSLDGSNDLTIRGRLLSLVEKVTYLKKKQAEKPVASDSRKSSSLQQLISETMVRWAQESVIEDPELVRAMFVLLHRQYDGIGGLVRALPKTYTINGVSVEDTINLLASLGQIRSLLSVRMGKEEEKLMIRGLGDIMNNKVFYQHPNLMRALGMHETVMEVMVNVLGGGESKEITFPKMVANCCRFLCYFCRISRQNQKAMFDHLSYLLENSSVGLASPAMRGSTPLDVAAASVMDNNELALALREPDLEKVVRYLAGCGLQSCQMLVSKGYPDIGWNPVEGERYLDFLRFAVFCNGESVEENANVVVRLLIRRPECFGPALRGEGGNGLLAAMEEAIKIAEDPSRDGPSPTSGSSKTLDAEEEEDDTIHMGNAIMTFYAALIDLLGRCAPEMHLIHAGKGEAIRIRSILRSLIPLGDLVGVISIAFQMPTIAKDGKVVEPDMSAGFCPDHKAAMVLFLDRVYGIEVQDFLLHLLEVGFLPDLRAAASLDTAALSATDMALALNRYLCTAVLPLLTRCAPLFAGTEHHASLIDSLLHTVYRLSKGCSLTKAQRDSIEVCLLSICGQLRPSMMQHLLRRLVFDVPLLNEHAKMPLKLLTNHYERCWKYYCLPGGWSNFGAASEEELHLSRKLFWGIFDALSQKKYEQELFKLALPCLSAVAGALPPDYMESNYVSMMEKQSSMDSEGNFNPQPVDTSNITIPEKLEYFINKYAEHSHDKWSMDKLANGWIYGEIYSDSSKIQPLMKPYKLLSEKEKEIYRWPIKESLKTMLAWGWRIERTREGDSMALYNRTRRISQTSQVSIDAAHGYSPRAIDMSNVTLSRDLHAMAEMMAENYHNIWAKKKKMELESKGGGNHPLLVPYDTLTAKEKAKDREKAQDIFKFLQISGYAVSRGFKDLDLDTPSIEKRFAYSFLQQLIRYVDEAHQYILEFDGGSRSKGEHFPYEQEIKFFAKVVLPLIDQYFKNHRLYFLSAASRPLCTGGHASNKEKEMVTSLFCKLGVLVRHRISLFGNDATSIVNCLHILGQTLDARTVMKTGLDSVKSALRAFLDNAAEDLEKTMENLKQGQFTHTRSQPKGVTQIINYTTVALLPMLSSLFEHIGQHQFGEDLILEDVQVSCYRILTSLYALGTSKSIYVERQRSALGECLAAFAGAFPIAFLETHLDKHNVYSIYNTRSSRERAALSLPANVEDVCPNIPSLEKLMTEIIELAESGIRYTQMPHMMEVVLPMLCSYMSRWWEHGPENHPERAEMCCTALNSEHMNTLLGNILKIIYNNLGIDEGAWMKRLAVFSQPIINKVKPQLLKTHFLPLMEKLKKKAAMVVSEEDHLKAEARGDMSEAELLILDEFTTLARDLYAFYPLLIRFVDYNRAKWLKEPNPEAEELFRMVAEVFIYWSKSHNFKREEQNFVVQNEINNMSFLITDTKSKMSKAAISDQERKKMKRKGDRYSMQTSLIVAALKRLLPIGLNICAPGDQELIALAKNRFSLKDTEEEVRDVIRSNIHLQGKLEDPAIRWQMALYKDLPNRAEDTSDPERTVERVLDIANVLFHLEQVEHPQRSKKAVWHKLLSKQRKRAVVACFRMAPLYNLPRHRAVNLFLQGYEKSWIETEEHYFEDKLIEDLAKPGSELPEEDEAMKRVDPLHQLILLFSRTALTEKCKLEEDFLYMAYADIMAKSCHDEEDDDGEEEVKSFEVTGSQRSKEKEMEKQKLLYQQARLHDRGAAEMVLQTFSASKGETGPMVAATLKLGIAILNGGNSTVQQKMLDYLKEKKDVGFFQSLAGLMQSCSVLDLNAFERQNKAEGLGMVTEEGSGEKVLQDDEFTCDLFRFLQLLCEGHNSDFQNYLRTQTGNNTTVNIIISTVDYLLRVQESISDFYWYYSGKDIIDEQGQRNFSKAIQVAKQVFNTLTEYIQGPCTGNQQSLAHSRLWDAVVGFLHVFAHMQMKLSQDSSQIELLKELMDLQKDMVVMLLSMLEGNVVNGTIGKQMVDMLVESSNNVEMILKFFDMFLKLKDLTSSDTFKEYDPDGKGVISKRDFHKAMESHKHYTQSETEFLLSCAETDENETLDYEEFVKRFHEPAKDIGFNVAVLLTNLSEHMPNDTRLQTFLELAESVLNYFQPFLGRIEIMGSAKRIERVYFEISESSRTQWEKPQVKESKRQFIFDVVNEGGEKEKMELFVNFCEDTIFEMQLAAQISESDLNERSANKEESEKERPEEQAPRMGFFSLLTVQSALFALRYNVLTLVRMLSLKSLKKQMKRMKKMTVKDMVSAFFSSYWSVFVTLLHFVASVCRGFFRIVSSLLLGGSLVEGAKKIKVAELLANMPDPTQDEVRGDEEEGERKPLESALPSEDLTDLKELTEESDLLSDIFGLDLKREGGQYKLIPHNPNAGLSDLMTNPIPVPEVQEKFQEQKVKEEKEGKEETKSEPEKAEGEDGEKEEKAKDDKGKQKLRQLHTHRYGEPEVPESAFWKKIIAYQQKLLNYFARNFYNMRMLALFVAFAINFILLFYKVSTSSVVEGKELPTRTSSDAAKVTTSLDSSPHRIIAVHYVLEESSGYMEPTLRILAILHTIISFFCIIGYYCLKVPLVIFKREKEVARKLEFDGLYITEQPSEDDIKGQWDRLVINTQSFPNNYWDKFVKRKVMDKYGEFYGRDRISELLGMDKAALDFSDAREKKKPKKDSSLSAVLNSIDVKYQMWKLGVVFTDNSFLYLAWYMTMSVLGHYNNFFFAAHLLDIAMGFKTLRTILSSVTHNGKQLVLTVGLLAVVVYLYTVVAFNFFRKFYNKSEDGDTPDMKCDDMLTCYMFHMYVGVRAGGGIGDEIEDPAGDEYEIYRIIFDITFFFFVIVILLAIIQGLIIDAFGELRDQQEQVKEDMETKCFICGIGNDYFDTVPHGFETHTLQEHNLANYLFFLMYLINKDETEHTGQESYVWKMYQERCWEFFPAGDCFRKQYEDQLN

Molecular target: cardiac ryanodine receptor (RyR2) (Rattus norvegicus, UniProt B0LPN4)

COc1ccccc1OCCNC[C@@H](O)COc1cccc2[nH]c3ccccc3c12 [R-carvedilol]
single-channel recording in planar lipid bilayers after 1 h pre-incubation with: 1 µM
